Patent publication US20150258192A1, “COMPOSITIONS AND METHODS FOR PREVENTING OR TREATING CHRONIC LUNG ALLOGRAFT DYSFUNCTION (CLAD) AND IDIOPATHIC PULMONARY FIBROSIS (IPF)” (priority 2014, published 2015)

By UniProt entry, the sequences of proteins in these tests, tags left out. Where a name states a change or a piece, a line headed by the entry shows the natural chain unless it says otherwise. Residues count along the entry.
UniProt Q9H1R3, 2-596 limits assumed: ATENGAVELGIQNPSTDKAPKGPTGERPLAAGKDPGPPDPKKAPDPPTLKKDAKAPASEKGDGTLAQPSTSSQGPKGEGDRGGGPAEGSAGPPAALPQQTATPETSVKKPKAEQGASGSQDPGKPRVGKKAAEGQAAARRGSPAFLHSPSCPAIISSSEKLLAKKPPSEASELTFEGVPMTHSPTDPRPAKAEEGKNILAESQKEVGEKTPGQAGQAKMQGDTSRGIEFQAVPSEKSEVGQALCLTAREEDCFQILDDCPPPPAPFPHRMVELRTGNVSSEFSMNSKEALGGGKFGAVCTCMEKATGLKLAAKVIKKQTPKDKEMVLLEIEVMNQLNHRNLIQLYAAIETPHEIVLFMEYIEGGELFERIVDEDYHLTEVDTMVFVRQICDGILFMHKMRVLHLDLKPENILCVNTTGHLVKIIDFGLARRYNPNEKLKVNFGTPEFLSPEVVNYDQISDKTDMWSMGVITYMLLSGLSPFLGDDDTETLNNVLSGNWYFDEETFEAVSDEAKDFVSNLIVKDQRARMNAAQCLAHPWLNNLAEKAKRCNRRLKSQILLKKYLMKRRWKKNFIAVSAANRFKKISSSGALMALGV
UniProt P07948: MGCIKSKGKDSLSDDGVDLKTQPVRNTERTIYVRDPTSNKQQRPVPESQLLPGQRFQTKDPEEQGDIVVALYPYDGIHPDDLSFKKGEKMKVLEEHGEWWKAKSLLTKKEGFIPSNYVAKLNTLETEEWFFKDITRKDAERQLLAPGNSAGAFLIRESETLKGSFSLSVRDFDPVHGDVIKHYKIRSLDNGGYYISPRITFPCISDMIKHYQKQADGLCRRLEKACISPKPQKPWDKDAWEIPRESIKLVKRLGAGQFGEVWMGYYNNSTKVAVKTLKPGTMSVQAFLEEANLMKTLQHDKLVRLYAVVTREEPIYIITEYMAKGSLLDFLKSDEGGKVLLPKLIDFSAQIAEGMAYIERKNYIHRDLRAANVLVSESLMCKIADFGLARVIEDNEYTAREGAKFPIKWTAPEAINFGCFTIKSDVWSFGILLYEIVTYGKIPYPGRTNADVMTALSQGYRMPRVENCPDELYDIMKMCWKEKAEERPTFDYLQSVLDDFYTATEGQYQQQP
UniProt Q16566: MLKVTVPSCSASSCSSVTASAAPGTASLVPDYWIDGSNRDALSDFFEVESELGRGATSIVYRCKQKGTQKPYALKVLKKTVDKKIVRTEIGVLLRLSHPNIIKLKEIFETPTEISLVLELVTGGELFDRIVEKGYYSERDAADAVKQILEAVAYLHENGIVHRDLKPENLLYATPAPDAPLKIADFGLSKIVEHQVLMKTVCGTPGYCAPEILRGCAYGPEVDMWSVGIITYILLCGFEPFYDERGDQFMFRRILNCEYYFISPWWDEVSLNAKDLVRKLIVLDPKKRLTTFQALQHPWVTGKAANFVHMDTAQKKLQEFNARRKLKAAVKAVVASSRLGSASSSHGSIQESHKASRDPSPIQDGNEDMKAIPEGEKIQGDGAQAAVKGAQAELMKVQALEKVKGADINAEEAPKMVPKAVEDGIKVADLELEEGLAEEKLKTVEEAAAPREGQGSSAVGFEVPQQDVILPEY
UniProt P41240: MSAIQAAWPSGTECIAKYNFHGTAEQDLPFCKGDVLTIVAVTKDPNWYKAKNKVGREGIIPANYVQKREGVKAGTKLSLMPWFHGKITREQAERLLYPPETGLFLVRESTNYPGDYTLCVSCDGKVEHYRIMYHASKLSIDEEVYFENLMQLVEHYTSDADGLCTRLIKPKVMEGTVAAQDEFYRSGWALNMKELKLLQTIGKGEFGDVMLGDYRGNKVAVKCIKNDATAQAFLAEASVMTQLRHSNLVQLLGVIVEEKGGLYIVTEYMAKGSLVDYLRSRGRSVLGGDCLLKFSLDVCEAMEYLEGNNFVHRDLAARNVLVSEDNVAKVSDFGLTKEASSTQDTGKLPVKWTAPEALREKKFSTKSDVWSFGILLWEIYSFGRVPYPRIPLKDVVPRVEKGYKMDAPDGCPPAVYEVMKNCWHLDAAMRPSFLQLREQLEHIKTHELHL
UniProt O43293: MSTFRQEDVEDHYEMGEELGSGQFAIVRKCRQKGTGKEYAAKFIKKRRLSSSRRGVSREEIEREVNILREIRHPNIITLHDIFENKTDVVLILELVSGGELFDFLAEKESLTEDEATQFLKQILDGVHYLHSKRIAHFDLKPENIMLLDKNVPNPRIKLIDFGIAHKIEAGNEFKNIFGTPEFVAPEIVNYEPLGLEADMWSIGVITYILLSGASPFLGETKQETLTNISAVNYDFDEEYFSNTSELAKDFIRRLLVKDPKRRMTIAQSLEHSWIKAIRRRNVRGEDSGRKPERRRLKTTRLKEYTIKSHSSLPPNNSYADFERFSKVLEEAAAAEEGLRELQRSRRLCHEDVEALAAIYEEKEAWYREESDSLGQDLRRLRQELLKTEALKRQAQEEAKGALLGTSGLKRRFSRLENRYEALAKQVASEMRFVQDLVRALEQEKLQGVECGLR
UniProt Q00535, whole entry: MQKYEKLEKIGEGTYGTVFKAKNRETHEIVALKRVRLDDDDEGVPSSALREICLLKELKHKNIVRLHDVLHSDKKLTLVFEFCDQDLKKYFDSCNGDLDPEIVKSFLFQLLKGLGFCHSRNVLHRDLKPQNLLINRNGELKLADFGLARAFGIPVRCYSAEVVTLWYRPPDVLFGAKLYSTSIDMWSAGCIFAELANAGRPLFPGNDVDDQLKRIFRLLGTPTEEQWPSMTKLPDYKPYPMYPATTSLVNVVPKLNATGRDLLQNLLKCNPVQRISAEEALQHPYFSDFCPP
UniProt O15264: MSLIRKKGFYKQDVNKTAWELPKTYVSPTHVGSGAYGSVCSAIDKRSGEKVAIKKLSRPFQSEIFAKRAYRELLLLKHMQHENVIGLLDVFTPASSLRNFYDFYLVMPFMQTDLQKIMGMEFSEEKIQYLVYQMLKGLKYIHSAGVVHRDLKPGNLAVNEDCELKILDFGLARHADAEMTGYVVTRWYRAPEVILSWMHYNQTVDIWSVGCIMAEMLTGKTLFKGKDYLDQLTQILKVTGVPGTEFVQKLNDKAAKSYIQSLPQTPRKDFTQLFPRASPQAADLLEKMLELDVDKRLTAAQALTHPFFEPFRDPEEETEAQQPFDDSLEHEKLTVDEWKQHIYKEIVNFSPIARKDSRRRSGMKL
UniProt Q06418, 41-890: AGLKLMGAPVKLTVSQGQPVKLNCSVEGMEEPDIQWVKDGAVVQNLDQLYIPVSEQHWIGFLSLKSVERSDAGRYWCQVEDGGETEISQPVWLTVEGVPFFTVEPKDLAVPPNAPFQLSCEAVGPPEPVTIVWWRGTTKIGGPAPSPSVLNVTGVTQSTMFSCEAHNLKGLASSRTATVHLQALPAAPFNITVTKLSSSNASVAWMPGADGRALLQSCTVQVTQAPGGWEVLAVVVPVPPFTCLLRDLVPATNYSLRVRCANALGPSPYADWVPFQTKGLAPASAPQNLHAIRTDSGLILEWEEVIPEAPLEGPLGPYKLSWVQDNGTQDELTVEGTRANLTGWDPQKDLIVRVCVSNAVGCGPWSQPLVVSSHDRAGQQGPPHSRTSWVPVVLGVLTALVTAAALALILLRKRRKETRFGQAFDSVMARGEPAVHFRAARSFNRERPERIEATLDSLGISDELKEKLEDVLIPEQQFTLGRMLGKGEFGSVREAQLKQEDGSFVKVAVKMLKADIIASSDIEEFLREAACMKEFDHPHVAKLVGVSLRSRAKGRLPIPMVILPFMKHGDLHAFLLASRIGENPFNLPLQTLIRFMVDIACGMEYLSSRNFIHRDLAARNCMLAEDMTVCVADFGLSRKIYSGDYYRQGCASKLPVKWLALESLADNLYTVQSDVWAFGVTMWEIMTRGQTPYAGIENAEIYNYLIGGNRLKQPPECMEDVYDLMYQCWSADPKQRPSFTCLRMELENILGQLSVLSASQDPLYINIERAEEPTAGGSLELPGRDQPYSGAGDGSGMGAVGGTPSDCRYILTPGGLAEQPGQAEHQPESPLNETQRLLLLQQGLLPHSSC
UniProt O15530: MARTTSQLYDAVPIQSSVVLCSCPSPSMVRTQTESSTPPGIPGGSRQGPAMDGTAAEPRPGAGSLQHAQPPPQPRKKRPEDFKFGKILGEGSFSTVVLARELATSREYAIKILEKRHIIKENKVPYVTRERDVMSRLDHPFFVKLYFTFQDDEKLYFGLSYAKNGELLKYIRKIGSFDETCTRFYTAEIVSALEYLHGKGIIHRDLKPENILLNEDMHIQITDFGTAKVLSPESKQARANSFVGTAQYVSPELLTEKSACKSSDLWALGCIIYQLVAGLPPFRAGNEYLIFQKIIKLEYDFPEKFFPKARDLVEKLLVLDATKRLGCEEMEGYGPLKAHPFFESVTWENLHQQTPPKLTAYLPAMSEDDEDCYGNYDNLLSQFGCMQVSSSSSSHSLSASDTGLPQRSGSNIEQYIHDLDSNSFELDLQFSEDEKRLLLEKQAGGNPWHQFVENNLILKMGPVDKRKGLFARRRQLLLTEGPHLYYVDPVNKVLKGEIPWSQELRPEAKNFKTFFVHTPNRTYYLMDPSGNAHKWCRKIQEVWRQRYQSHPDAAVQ
UniProt Q92630: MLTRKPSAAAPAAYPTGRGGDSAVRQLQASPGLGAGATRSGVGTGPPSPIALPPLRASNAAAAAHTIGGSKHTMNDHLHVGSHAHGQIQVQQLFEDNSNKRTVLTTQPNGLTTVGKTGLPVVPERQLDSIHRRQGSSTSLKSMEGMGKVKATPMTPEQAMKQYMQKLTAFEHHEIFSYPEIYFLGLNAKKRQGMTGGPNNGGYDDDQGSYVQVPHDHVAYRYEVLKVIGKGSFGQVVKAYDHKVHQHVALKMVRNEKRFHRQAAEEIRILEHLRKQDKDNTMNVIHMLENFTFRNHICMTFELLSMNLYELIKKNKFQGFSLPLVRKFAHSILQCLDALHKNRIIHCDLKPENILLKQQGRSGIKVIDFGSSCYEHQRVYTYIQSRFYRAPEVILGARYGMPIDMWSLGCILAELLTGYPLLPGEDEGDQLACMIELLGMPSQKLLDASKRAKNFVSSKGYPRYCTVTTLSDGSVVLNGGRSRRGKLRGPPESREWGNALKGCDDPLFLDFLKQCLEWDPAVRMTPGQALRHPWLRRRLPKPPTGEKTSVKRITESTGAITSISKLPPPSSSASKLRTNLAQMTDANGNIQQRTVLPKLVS
UniProt P48730: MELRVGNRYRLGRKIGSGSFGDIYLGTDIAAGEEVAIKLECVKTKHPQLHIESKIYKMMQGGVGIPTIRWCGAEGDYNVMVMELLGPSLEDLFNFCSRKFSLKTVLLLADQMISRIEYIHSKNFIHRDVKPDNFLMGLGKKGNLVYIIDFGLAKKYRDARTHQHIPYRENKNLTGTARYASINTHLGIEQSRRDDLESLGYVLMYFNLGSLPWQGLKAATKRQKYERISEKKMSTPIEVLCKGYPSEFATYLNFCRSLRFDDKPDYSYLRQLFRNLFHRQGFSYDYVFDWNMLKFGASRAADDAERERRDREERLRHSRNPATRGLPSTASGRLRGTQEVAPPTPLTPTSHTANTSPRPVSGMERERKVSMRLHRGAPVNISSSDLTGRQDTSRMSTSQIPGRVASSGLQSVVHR
UniProt Q9Y6E0: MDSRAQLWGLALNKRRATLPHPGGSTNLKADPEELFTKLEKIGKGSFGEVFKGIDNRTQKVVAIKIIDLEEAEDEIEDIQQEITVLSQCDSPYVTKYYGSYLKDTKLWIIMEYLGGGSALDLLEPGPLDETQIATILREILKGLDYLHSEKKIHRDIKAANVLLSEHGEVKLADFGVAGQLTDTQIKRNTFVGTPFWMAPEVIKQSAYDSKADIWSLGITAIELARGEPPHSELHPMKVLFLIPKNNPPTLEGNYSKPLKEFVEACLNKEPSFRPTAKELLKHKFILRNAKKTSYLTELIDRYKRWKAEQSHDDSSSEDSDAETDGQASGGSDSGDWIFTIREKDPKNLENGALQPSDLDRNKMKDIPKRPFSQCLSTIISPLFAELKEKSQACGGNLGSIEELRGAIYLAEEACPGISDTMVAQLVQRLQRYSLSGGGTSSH
UniProt Q13555: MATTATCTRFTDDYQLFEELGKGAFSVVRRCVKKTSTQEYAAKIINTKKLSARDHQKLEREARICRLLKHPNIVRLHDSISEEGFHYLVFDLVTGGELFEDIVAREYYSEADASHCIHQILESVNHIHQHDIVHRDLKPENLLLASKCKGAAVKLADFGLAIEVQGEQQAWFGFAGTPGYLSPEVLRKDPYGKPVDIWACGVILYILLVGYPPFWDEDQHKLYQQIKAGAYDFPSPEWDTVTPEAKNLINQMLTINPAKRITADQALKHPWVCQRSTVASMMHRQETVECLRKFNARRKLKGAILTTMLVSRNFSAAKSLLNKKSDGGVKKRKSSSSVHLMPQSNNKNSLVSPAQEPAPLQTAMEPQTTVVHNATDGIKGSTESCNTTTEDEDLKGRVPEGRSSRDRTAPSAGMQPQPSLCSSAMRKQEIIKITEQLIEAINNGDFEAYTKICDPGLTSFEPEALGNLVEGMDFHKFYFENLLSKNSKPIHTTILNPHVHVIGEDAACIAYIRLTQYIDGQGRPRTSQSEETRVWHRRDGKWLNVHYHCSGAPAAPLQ

Experiments:
Assay in all cases: Kinase Profiling Assay
Assay type in all cases: biochemical
Conditions in all cases: peptide 100 μM
Flt3(D835Y)(h) = Flt3(D835Y)(h) (Homo sapiens, UniProt P36888, D835Y)
Outline: (§1)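 Each kinase activity was measured in duplicate. Phosphorylation of a positively charged substrate with radiolabeled phosphate from ATP was captured on a negatively charged filter, counted by scintillation and expressed relative to a 100% activity control. MK2 inhibitory peptides were screened for specificity across 266 human kinases.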

IKKα(h) = molecular target: T1, IKKα(h) (Homo sapiens, UniProt O15111)
T1 construct: purchased Millipore
T1 sequence (O15111 1-745): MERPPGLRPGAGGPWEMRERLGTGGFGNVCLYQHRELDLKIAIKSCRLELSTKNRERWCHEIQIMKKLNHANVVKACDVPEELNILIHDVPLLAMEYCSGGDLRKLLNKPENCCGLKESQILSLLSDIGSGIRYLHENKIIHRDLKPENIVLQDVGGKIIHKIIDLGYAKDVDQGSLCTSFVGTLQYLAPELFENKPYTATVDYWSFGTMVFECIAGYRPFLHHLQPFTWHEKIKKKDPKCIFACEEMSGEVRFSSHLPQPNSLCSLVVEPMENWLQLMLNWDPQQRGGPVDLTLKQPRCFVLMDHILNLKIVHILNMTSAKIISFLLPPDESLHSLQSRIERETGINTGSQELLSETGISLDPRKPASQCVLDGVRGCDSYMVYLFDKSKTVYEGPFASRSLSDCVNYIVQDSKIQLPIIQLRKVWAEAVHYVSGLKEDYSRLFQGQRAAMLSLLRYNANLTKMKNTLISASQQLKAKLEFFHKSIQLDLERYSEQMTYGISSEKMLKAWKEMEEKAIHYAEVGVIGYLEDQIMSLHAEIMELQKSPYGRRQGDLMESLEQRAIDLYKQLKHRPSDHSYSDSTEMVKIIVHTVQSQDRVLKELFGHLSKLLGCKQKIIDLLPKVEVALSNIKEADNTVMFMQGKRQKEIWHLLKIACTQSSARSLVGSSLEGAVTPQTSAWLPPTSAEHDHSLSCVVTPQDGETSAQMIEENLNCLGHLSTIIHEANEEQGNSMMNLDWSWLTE
Outline: as §1

MLCK(h) = molecular target: T2, MLCK(h) (Homo sapiens, UniProt Q9H1R3)
T2 construct: purchased Millipore
Outline: as §1

Met(Y1248D)(h) = molecular target: T3, Met(Y1248D)(h) (Homo sapiens, UniProt P08581, Y1230D)
T3 construct: purchased Millipore
Outline: as §1

Lyn(h) = molecular target: T4, Lyn(h) (Homo sapiens, UniProt P07948)
T4 construct: purchased Millipore
Outline: as §1

Met(D1246N)(h) = molecular target: T5, Met(D1246N)(h) (Homo sapiens, UniProt P08581, D1228N)
T5 construct: purchased Millipore
Outline: as §1

CaMKIV(h) = CaMKIV(h) (Homo sapiens, UniProt Q16566)
Outline: as §1

CSK(h) = CSK(h) (Homo sapiens, UniProt P41240)
Outline: as §1

Pim-1(h) = Pim-1(h) (Homo sapiens, UniProt P11309)
Outline: as §1

ZIPK(h) = ZIPK(h) (Homo sapiens, UniProt O43293)
Outline: as §1

CDK6/cyclinD3(h) = CDK6/cyclinD3(h) (Homo sapiens, UniProt Q00534)
Outline: as §1

CDK5/p25(h) = CDK5/p25(h) (Homo sapiens, UniProt Q00535)
Outline: as §1

Rsk2(h) = Rsk2(h) (Homo sapiens, UniProt P51812)
Outline: as §1

SAPK4(h) = molecular target: T6, SAPK4(h) (Homo sapiens, UniProt O15264)
T6 construct: purchased Millipore
Outline: as §1

CaMKIIδ(h) = CaMKIIδ(h) (Homo sapiens, UniProt Q13557)
Outline: as §1

AMPKα1(h) = AMPKα1(h) (Homo sapiens, UniProt Q13131)
Outline: as §1

Yes(h) = Yes(h) (Homo sapiens, UniProt P07947)
Outline: as §1

Rse(h) = Rse(h) (Homo sapiens, UniProt Q06418)
Outline: as §1

MSK2(h) = molecular target: T7, MSK2(h) (Homo sapiens, UniProt O75676)
T7 construct: purchased Millipore
Outline: as §1

MST1(h) = molecular target: T8, MST1(h) (Homo sapiens, UniProt Q13043)
T8 construct: purchased Millipore
Outline: as §1

PKCβII(h) = PKCβII(h) (Homo sapiens, UniProt P05771)
Outline: as §1

PDK1(h) = PDK1(h) (Homo sapiens, UniProt O15530)
Outline: as §1

DYRK2(h) = DYRK2(h) (Homo sapiens, UniProt Q92630)
Outline: as §1

CK1δ(h) = CK1δ(h) (Homo sapiens, UniProt P48730)
Outline: as §1

PKBβ(h) = PKBβ(h) (Homo sapiens, UniProt P31751)
Outline: as §1

MST3(h) = molecular target: T9, MST3(h) (Homo sapiens, UniProt Q9Y6E0)
T9 construct: purchased Millipore
Outline: as §1

SAPK3(h) = molecular target: T10, SAPK3(h) (Homo sapiens, UniProt P53778)
T10 construct: purchased Millipore
Outline: as §1

CaMKIIγ(h) = CaMKIIγ(h) (Homo sapiens, UniProt Q13555)
Outline: as §1

## YARAAARQARAKALNRQLGVA (Mammal) [MMI-0200]
Flt3(D835Y)(h)
  % activity: 115%
IKKα(h)
  % activity: 104%
MLCK(h)
  % activity: 103%

## FAKLAARLYRKALARQLGVAA [MMI-0300]
Met(Y1248D)(h)
  % activity: 102%

## CC(C)C[C@H](NC(=O)[C@H](C)NC(=O)[C@H](CCCCN)NC(=O)[C@H](C)NC(=O)[C@H](CCCNC(=N)N)NC(=O)[C@H](C)NC(=O)[C@H](CCC(N)=O)NC(=O)[C@H](CCCNC(=N)N)NC(=O)[C@H](C)NC(=O)[C@H](C)NC(=O)[C@H](C)NC(=O)[C@H](CCCNC(=N)N)NC(=O)[C@H](C)NC(=O)[C@@H](N)Cc1ccc(O)cc1)C(=O)N[C@@H](C)C(=O)N[C@@H](CCCNC(=N)N)C(=O)N[C@@H](CCC(N)=O)C(=O)N[C@@H](CC(C)C)C(=O)NCC(=O)N[C@H](C(=O)N[C@@H](C)C(=O)N[C@@H](C)C(=O)O)C(C)C [MMI-0100]
Lyn(h)
  % activity: 113%
Met(D1246N)(h)
  % activity: 114%
CaMKIV(h)
  % activity: 87%
CSK(h)
  % activity: 70%
Pim-1(h)
  % activity: 44%
ZIPK(h)
  % activity: 80%
CDK6/cyclinD3(h)
  % activity: 103%
CDK5/p25(h)
  % activity: 114%
Rsk2(h)
  % activity: 65%
SAPK4(h)
  % activity: 98%
CaMKIIδ(h)
  % activity: 89%
AMPKα1(h)
  % activity: 107%
Yes(h)
  % activity: 49%
Rse(h)
  % activity: 109%
MSK2(h)
  % activity: 105%
MST1(h)
  % activity: 85%
PKCβII(h)
  % activity: 102%
PDK1(h)
  % activity: 144%
DYRK2(h)
  % activity: 99%
CK1δ(h)
  % activity: 115%
PKBβ(h)
  % activity: 284%
MST3(h)
  % activity: 104%
SAPK3(h)
  % activity: 106%
CaMKIIγ(h)
  % activity: 106%
